Laboratory results published in patent publication US20180118718A1 (published 2018).

Protein sequences, listed by entry. Tags and fused reporters are not part of them. Lines headed by an entry give the natural chain unless they say otherwise; changes in a name come on top.
UniProt Q16875: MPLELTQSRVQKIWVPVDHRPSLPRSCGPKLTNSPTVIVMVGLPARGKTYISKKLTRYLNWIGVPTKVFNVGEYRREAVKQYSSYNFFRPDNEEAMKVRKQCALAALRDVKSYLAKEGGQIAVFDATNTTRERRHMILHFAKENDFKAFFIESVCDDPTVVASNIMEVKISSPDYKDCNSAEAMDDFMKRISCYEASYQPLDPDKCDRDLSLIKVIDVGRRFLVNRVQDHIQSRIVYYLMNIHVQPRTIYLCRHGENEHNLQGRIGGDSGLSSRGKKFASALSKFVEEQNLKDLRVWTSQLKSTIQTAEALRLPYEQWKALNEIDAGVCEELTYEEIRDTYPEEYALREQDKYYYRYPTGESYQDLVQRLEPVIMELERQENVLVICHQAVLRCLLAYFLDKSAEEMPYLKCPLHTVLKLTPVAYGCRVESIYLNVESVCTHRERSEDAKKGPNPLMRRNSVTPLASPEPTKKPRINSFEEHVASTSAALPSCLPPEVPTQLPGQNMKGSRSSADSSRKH

Molecular target: Human recombinant His-tagged PFKFB3 (Homo sapiens, UniProt Q16875)
Assay: PFKFB3 IC50 Determination Assay (in vitro kinase assay, modified ADP-Glo system)
Assay type: biochemical

SMILES	IC50
CS(=O)(=O)c1ccncc1Nc1cc(-c2ccc(N)cc2)c2nccnc2c1 [Example 131]	1000 to 10000 nM
CN(c1cc(-c2ccc3ccn(C)c3c2)c2nccnc2c1)c1cnccc1S(C)(=O)=O [Example 104]	1000 to 10000 nM
CS(=O)(=O)c1ccncc1Nc1cc(-c2cccc(OC(F)(F)F)c2)c2nccnc2c1 [Example 163]	1000 to 10000 nM
CS(=O)(=O)c1ccncc1Nc1cc(-c2cccc(Br)c2)c2nccnc2c1 [Example 158]	1000 to 10000 nM
COc1ncccc1Nc1cc(-c2ccc3ccn(C)c3c2)c2nccnc2c1 [Example 13, N-(2-Methoxypyridin-3-yl)-8-(1-methyl-1H-indol-6-yl)quinoxalin-6-amine]	1 to 1000 nM
CS(=O)(=O)c1ccncc1Nc1cc(-c2ccc3nsnc3c2)c2nccnc2c1 [Example 117]	1 to 1000 nM
CC(C)n1ccc2ccc(-c3cc(Nc4cnccc4S(C)(=O)=O)cc4nccnc34)cc21 [Example 49]	1000 to 10000 nM
Cn1ccc2ccc(-c3cc(Nc4cnccc4C(=O)NC4CCOCC4)cc4nccnc34)cc21 [Example 101, 3-{[8-(1-Methyl-1H-indol-6-yl)quinoxalin-6-yl]amino}-N-(oxan-4-yl)pyridine-4-carboxamide]	1 to 1000 nM
Cn1ccc2c(F)cc(-c3cc(Nc4cnccc4S(C)(=O)=O)cc4nccnc34)cc21 [Example 71]	1 to 1000 nM
CS(=O)(=O)c1ccncc1Nc1cc(-c2ccc3c(c2)CCO3)c2nccnc2c1 [Example 37]	1 to 1000 nM
CCCn1ccc2ccc(-c3cc(Nc4cnccc4S(C)(=O)=O)cc4nccnc34)cc21 [Example 184]	1000 to 10000 nM
CS(=O)(=O)c1ccncc1Nc1cc(-c2cccc(N)c2)c2nccnc2c1 [Example 132]	1000 to 10000 nM
CS(=O)(=O)c1ccncc1Nc1cc(-c2ccc3c(c2)OCCO3)c2nccnc2c1 [Example 1]	1000 to 10000 nM
Cc1cc(-c2cc(Nc3cnccc3S(C)(=O)=O)cc3nccnc23)cc2c1ccn2C [Example 189]	1 to 1000 nM
CCn1ccc2ccc(-c3cc(Nc4cnccc4S(C)(=O)=O)cc4nccnc34)cc21 [Example 166]	1 to 1000 nM
CS(=O)(=O)c1ccncc1Nc1cc(-c2ccc3nonc3c2)c2nccnc2c1 [Example 120]	1000 to 10000 nM
CS(=O)(=O)c1ccncc1Nc1cc(-c2ccc(C(F)(F)F)cc2)c2nccnc2c1 [Example 185]	1000 to 10000 nM
COc1ccc(-c2cc(Nc3cnccc3S(C)(=O)=O)cc3nccnc23)cc1 [Example 152]	1000 to 10000 nM
COc1ccncc1Nc1cc(-c2ccc3ccn(C)c3c2)c2nccnc2c1 [Example 23, N-(4-methoxypyridin-3-yl)-8-(1-methyl-1H-indol-6-yl)quinoxalin-6-amine]	1 to 1000 nM
Cn1ccc2ccc(-c3cc(Nc4ccccc4C(N)=O)cc4nccnc34)cc21 [Example 89, 2-{[8-(1-methyl-1H-indol-6-yl)quinoxalin-6-yl]amino}benzamide]	1 to 1000 nM
CS(=O)(=O)c1ccncc1Nc1cc(-c2ccc3sc(N)cc3c2)c2nccnc2c1 [Example 203]	1 to 1000 nM
CN(C)c1cccc(-c2cc(Nc3cnccc3S(C)(=O)=O)cc3nccnc23)c1 [Example 50]	1 to 1000 nM
CS(=O)(=O)c1ccncc1Nc1cc(-c2ccc3ccn(C(F)F)c3c2)c2nccnc2c1 [Example 154]	1 to 1000 nM
CC1(C)COc2ccc(-c3cc(Nc4cnccc4S(C)(=O)=O)cc4nccnc34)cc21 [Example 63]	1000 to 10000 nM

The remaining lines, values ahead:

IC50	SMILES
1 to 1000 nM	Cc1coc2ccc(-c3cc(Nc4cnccc4S(C)(=O)=O)cc4nccnc34)cc12 [Example 22]
1 to 1000 nM	COc1cccc(-c2cc(Nc3cnccc3S(C)(=O)=O)cc3nccnc23)c1 [Example 62]
1 to 1000 nM	CS(=O)(=O)c1ccncc1Nc1cc(-c2ccc(Br)cc2)c2nccnc2c1 [Example 157]
1 to 1000 nM	Cc1csc2ccc(-c3cc(Nc4cnccc4S(C)(=O)=O)cc4nccnc34)cc12 [Example 110]
1 to 1000 nM	Cn1ccc2ccc(-c3cc(Nc4ccccc4C#N)cc4nccnc34)cc21 [Example 88, 2-{[8-(1-Methyl-1H-indol-6-yl)quinoxalin-6-yl]amino}benzonitrile]
1 to 1000 nM	CS(=O)(=O)c1ccncc1Nc1cc(-c2ccc3ncsc3c2)c2nccnc2c1 [Example 4]
1 to 1000 nM	CS(=O)(=O)c1ccncc1Nc1cc(-c2ccc3scnc3c2)c2nccnc2c1 [Example 9]
1 to 1000 nM	CCc1ccc(-c2cc(Nc3cnccc3S(C)(=O)=O)cc3nccnc23)cc1 [Example 60]
1 to 1000 nM	CSc1cccc(-c2cc(Nc3cnccc3S(C)(=O)=O)cc3nccnc23)c1 [Example 210]
1 to 1000 nM	CS(=O)(=O)c1ccncc1Nc1cc(-c2ccc3sc(N)nc3c2)c2nccnc2c1 [Example 162]
1 to 1000 nM	Cn1ccc2ccc(-c3cc(Nc4cnccc4C#N)cc4nccnc34)cc21 [Example 18, 3-{[8-(1-Methyl-1H-indol-6-yl)quinoxalin-6-yl]amino}pyridine-4-carbonitrile]
